# According to ChEMBL document CHEMBL5512615, “Targeting autophagy drug discovery: Targets, indications and development trends” (Eur J Med Chem, 2024):
# Test: Inhibition of AKT (unknown origin)
# Parameters: species or system Homo sapiens
smiles,measurement,value
CCCCCCCCCCCCCCCCCCOP(=O)([O-])OC1CC[N+](C)(C)CC1 [PERIFOSINE],IC50,4.7 µM
